Earlier results in patent publication US11458170B2, “Pharmaceutical composition comprising erythrocytes encapsulating a PLP-dependent enzyme and, a non-phosphate PLP precursor” (ERYTECH PHARMA, priority 2014, dated 2022).

Substance: Tyrosine Phenol-Lyase [TPL]
- Share of the potential activity actually measured in the plasma (5 h after injection, no PLP administered): 7%
- Share of the potential activity actually measured in the plasma (PLP intramuscular implant of spermaceti and groundnut oil): ≤ 25%

Like-named read-outs stand apart in the source and are kept apart here.
